For the assay, the target named is adenosine receptor known as A1 (Cavia porcellus, UniProt P47745).

By UniProt entry, the sequences of proteins in these tests, tags left out.
UniProt P47745, whole entry: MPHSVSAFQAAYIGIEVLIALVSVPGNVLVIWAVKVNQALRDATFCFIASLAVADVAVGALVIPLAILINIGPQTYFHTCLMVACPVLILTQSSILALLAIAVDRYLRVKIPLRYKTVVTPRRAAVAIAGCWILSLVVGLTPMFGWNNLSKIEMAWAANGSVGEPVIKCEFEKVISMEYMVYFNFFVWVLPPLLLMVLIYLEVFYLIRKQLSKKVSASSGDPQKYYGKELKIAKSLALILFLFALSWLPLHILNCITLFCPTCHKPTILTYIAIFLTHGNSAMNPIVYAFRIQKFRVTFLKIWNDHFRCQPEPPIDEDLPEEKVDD

For `Cn1c(=O)c2[nH]cnc2n(C)c1=O` [1,3-dimethylxanthine], the Kb was approximately 10 µM.
